In patent US20260384422A1, “CRYSTALLINE FORMS OF A BIARYL YAP/TAZ-TEAD PROTEIN-PROTEIN INTERACTION INHIBITOR” (published 2026):

Experiments:
[1] = Stability Study (degradation products, color, XRPD after stress); settings: for Color (remark on solid in words): pH 9.0 borate buffer 50 mM
[2] = DVS isotherm / humidity exposure (hygroscopicity, XRPD after humidity); settings: for DVS mass change, desorption / DVS mass change, sorption: 25 °C; for XRPD after DVS: after DVS at 25 °C, 2 cycles 40-0-95-0-40% RH
[3] = Glass transition by DSC after heating and cooling
Loss on drying by TGA = settings: for Loss on drying / Loss on drying after 1 day at 92% RH: heating rate 10 K/min
Crystal morphology (SEM) = settings: SEM image, FIG. 2
[4] = Comparison of the properties of IAG933 succinate salt and free form Modification A; settings: statement in words
[5] = 0.1% solution or suspension, 1 week 80 °C, pH 3.0 citrate buffer 50 mM (pH 3.10 free form; pH 3.56 salt)
[6] = 0.1% solution or suspension, 1 week 80 °C, pH 4.7 acetate buffer 50 mM (pH 4.83 free form; pH 4.93 salt)
[7] = 0.1% solution or suspension, 1 week 80 °C, pH 6.8 phosphate buffer 50 mM (pH 6.88 free form; pH 6.46 salt)
[8] = 0.1% solution or suspension, 1 week 80 °C
[9] = 0.1% solution or suspension, 1 week 80 °C, pH 9.0 borate buffer 50 mM (pH 8.99 free form; 7.51 salt)
[10] = 0.1% solution or suspension, 1 week 80 °C, water (final pH 8.99 free form; 5.10 salt)
[11] = Xenon light (1200 kLuxh), bulk amber vial (HPLC)
[12] = Xenon light (1200 kLuxh), bulk clear vial (HPLC)
[13] = second Bulk (HPLC) line under heading solid state, 2 week 50 °C / 11% RH, open (own condition not given)
[14] = second Bulk (XRPD) line under heading solid state, 2 week 50 °C / 11% RH, open (own condition not given)
[15] = solid state, 2 week 80 °C / 11% RH, open
[16] = solid state, 2 week 80 °C / 11% RH, open, bulk (HPLC)
[17] = solid state, 2 week 80 °C / 75% RH, open
[18] = solid state, 2 week 80 °C / 75% RH, open, bulk (HPLC)

Question: Which “Degradation Products” value ([1]; 0.1% solution or suspension, 1 week 70 °C, acetonitrile) does the source give for CNC(=O)c1cnc(OCCO)c(F)c1-c1c(Cl)c(F)cc2c1C[C@](c1ccccc1)([C@@H]1CCCN1)O2 here?
Answer: The value was 0.8%.

Question: And the “Degradation Products” value ([1]; 0.1% solution or suspension, 1 week 70 °C, ethanol)?
Answer: The value was 1.7%.

Question: And the “Degradation Products” value [1, 5]?
Answer: The value was 1.4%.

Question: And the “Degradation Products” value [1, 6]?
Answer: The value was 1.0%.

Question: And the “Degradation Products” value [1, 7]?
Answer: The value was 1.9%.

Question: And the “Color (remark on solid in words)” value [1, 8]?
Answer: The value was “(solid on the wall)”.

Question: And the “Degradation Products” value [1, 9]?
Answer: Its value is 5.7%.

Question: And the “Degradation Products” value [1, 10]?
Answer: Its value is 4.6%.

Question: What about the “Bulk amber vial (XRPD)” value ([1]; Xenon light (1200 kLuxh)) of the same molecule?
Answer: Its value is “No change”.

Question: And the “Bulk clear vial (XRPD)” value ([1]; Xenon light (1200 kLuxh))?
Answer: Its value is “No change”.

Question: What about the “Degradation Products” value [1, 11] of the same molecule?
Answer: Its value is 1.0%.

Question: And the “Degradation Products” value [1, 12]?
Answer: The value was 4.1%.

Question: And the “Degradation Products” value ([1]; initial)?
Answer: The value was 0.7%.

Question: And the “Degradation Products” value [1, 13]?
Answer: The value was 1.3%.

Question: What about the “Bulk (XRPD)” value [1, 14] of the same molecule?
Answer: Its value is “No change”.

Question: What about the “Bulk (XRPD)” value [1, 15] of the same molecule?
Answer: The value was “No change”.

Question: What about the “Degradation Products” value [1, 16] of the same molecule?
Answer: Its value is 1.4%.

Question: And the “Bulk (XRPD)” value [1, 17]?
Answer: Its value is “Gel”.

Question: And the “Color (appearance in words)” value [1, 17]?
Answer: Its value is “gel”.

Question: What about the “Degradation Products” value [1, 18] of the same molecule?
Answer: Its value is 12.6%.

Question: And the “DVS mass change, desorption” value ([2]; 0% RH)?
Answer: The value was −0.01%.

Question: And the “DVS mass change, sorption” value ([2]; 0% RH)?
Answer: Its value is 0.00%.

Question: What about the “DVS mass change, desorption” value ([2]; 10% RH) of the same molecule?
Answer: The value was 0.16%.

Question: And the “DVS mass change, sorption” value ([2]; 10% RH)?
Answer: Its value is 0.11%.

Question: And the “DVS mass change, desorption” value ([2]; 20% RH)?
Answer: The value was 0.28%.

Question: And the “DVS mass change, sorption” value ([2]; 20% RH)?
Answer: The value was 0.19%.

Question: And the “DVS mass change, desorption” value ([2]; 30% RH)?
Answer: The value was 0.38%.

Question: And the “DVS mass change, sorption” value ([2]; 30% RH)?
Answer: Its value is 0.26%.

Question: And the “DVS mass change, desorption” value ([2]; 40% RH)?
Answer: Its value is 0.48%.

Question: What about the “DVS mass change, sorption” value ([2]; 40% RH) of the same molecule?
Answer: The value was 0.33%.

Question: What about the “DVS mass change, desorption” value ([2]; 50% RH) of the same molecule?
Answer: Its value is 0.62%.

Question: What about the “DVS mass change, sorption” value ([2]; 50% RH) of the same molecule?
Answer: The value was 0.41%.

Question: And the “DVS mass change, desorption” value ([2]; 60% RH)?
Answer: Its value is 0.72%.

Question: What about the “DVS mass change, sorption” value ([2]; 60% RH) of the same molecule?
Answer: Its value is 0.51%.

Question: And the “DVS mass change, desorption” value ([2]; 70% RH)?
Answer: Its value is 0.81%.

Question: What about the “DVS mass change, sorption” value ([2]; 70% RH) of the same molecule?
Answer: The value was 0.62%.

Question: What about the “DVS mass change, desorption” value ([2]; 80% RH) of the same molecule?
Answer: Its value is 0.90%.

Question: And the “DVS mass change, sorption” value ([2]; 80% RH)?
Answer: Its value is 0.75%.

Question: What about the “DVS mass change, desorption” value ([2]; 90% RH) of the same molecule?
Answer: The value was 1.00%.

Question: What about the “DVS mass change, sorption” value ([2]; 90% RH) of the same molecule?
Answer: The value was 0.92%.

Question: And the “DVS mass change, desorption” value ([2]; 95% RH)?
Answer: Its value is 1.04%.

Question: And the “DVS mass change, sorption” value ([2]; 95% RH)?
Answer: The value was 1.05%.

Question: And the “XRPD after 1 day at 92% RH: crystallinity or form” value [2]?
Answer: Its value is “No change”.

Question: What about the “XRPD after DVS” value [2] of the same molecule?
Answer: Its value is “No change”.

Question: What about the “Tg (glass transition)” value [3] of the same molecule?
Answer: The value was 95.6 °C.

Question: What about the Loss on drying (Loss on drying by TGA; at 110 °C) of the same molecule?
Answer: The Loss on drying was 0.4%.

Question: What about the “Loss on drying after 1 day at 92% RH” value (Loss on drying by TGA; at 110 °C) of the same molecule?
Answer: Its value is 1.0%.

Question: What about the “Loss of drying (LoD)” value (Loss on drying by TGA; heating rate 10 °C/min, calculated between 27 °C and 110 °C) of the same molecule?
Answer: Its value is 0.38%.

Question: Which results are given for CNC(=O)c1cnc(OCCO)c(F)c1-c1c(Cl)c(F)cc2c1C[C@](c1ccccc1)([C@@H]1CCCN1)O2.O=C(O)CCC(=O)O?
Answer: Degradation Products ([1]; 0.1% solution or suspension, 1 week 50 °C, MeOH): 0.28%; Degradation Products ([1]; 0.1% solution or suspension, 1 week 50 °C, acetone): 3.97%; Degradation Products ([1]; 0.1% solution or suspension, 1 week 50 °C, acetonitrile): 1.95%; Degradation Products ([1]; 0.1% solution or suspension, 1 week 50 °C, ethanol): 0.69%; Degradation Products [1, 5]: 0.84%; Degradation Products [1, 6]: 0.31%; Degradation Products [1, 7]: 0.37%; Color (remark on solid in words) [1, 8]: (amorphous); Degradation Products [1, 9]: 2.35%; Degradation Products [1, 10]: 0.37%; Bulk amber vial (XRPD) ([1]; Xenon light (1200 kLuxh)): No change; Bulk clear vial (XRPD) ([1]; Xenon light (1200 kLuxh)): No change; Degradation Products [1, 11]: 0.14%; Degradation Products [1, 12]: 3.09%; Degradation Products ([1]; initial): 0.28%; Degradation Products [1, 13]: 0.18%; Bulk (XRPD) [1, 14]: No change; Bulk (XRPD) ([1]; solid state, 2 week 50 °C / 11% RH, open): No change; Degradation Products ([1]; solid state, 2 week 50 °C / 11% RH, open, bulk (HPLC)): 0.22%; Bulk (XRPD) [1, 15]: No change; Degradation Products [1, 16]: 1.22%; Bulk (XRPD) [1, 17]: No change; Degradation Products [1, 18]: 1.34%; morphology (Crystal morphology (SEM)): blocky; DVS mass change, desorption ([2]; 0% RH): 0.0024%; DVS mass change, sorption ([2]; 0% RH): 0.0007%; DVS mass change, desorption ([2]; 10% RH): 0.0389%; DVS mass change, sorption ([2]; 10% RH): 0.0321%; DVS mass change, desorption ([2]; 20% RH): 0.0847%; DVS mass change, sorption ([2]; 20% RH): 0.0624%; DVS mass change, desorption ([2]; 30% RH): 0.1241%; DVS mass change, sorption ([2]; 30% RH): 0.0920%; DVS mass change, desorption ([2]; 40% RH): 0.1611%; DVS mass change, sorption ([2]; 40% RH): 0.1212%; DVS mass change, desorption ([2]; 50% RH): 0.2081%; DVS mass change, sorption ([2]; 50% RH): 0.1630%; DVS mass change, desorption ([2]; 60% RH): 0.2490%; DVS mass change, sorption ([2]; 60% RH): 0.2076%; DVS mass change, desorption ([2]; 70% RH): 0.3053%; DVS mass change, sorption ([2]; 70% RH): 0.2722%; DVS mass change, desorption ([2]; 80% RH): 0.3892%; DVS mass change, sorption ([2]; 80% RH): 0.3684%; DVS mass change, desorption ([2]; 90% RH): 0.5376%; DVS mass change, sorption ([2]; 90% RH): 0.5302%; DVS mass change, desorption ([2]; 95% RH): 0.7523%; DVS mass change, sorption ([2]; 95% RH): 0.7523%; water uptake ([2]; 95% relative humidity, DVS (dynamic vapor sorption) test): 0.75%; XRPD after 1 day at 92% RH: crystallinity or form [2]: IAG933 1:1 succinate salt (unsolvated); XRPD after DVS [2]: No change; Tg (glass transition) [3]: 96 °C; Δcp (glass transition) [3]: (0.4 J/g/K); Loss on drying (Loss on drying by TGA; at 150 °C): 0.4%; Loss on drying after 1 day at 92% RH (Loss on drying by TGA; at 150 °C): 0.3%; Loss on drying (Loss on drying by TGA; at 150 °C, listed as 1:1 succinate salt of IAG933): 0.4%; properties compared to IAG933 free form modification A [4]: improved properties with respect to residual solvent content, melting point, hygroscopicity and stability when compared to IAG933 free form modification A
